These are literature values, as cited in patent publication US20250154472A1, “Culture Medium for Expanding Breast Epithelial Stem Cells” (Koninklijke Nederlandse Akademie Van Wetenschappen, priority 2014, published 2025).

This data set addresses T1, ALK5 (TGF-βR1) (Homo sapiens, UniProt P36897).
T1 sequence (P36897 34-503): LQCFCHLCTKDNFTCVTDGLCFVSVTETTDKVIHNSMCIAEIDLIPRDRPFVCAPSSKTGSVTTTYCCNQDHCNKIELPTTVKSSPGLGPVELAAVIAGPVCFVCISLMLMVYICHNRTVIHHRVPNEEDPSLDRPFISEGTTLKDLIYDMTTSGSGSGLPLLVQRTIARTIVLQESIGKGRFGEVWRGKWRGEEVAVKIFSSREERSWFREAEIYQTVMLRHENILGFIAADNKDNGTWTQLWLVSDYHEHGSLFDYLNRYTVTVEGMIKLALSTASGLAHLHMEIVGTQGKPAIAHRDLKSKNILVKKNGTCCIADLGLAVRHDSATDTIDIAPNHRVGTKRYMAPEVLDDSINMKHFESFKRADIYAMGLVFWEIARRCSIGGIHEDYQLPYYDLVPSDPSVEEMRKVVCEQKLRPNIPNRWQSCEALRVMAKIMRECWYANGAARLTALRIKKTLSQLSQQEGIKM
Conditions: high concentrations; p38 MAP kinase inhibitor off-target; cited from earlier work.

`C[S+]([O-])c1ccc(-c2nc(-c3ccc(F)cc3)c(-c3ccncc3)[nH]2)cc1` (stereo not shown) [SB-203580]: the “concentration at which ALK5 is thought to be inhibited” value was not below 10 µM.
